Key:
HUVECs [1] = assay: VEGF-induced endothelial proliferation assay; format: cell-based, human; details: VEGF 50 ng/mL, compound 1 μg/mL
Method: (§1) For analyzing of the antagonistic response to VEGF, tube formation, scratch wound migration, and cell proliferation assays were performed after the exposure of HUVECs to 50 ng/mL VEGF-A (R&D Systems, Minneapolis, MN), which induced a significant angiogenic response. For the cell proliferation assays, cells were incubated overnight in endothelial basal media (EBM; Lonza, Walkersville, MD, USA) containing 0.5% FBS or supplemented with VEGF-A and/or VEGF inhibitors. The cells were washed with PBS and counted in 4 random microscope fields. The tube formation assay was performed by seeding cells on Matrigel-coated plates (BD Bioscience, Bedford, MA, USA) and incubating in EBM containing 0.5% FBS or supplemented with VEGF-A and/or VEGF inhibitors. After overnight incubation, tubule networks were quantified by measuring the tubule length in 4 random microscope fields. For the analysis of scratch wound migration, confluent cell monolayers grown on 6-well plates were scratched using a micropipette tip. […] Cell migration was observed by optical microscopy and quantified by measuring the number of cells that had migrated from the wound edges.
(§2) In (A) and (B), the number of cells was expressed as the fold change with respect to the number of cells seeded at day 0. […]

HUVECs [2] = assay: VEGF-induced scratch wound migration assay; format: cell-based, human; details: VEGF 50 ng/mL, compound 0.5 μg/mL, 8 hours
Method: as §1, §2

Compound: Cc1ccc(Nc2nccc(N(C)c3ccc4c(C)n(C)nc4c3)n2)cc1S(N)(=O)=O [Pazopanib, 5-[[4-[(2,3-dimethyl-2H-indazol-6-yl)methylamino]-2-pyrimidinyl]amino]-2-methyl-benzenesulfonamide, reference compound]
- Effect on VEGF-induced increase in endothelial proliferation (HUVECs [1]): significantly inhibited
- Effect on VEGF-induced increase in migration (HUVECs [2]): significantly inhibited
